Earlier results, collected in patent publication US20240293585A1, “HIGH MOLECULAR WEIGHT ZWITTERION-CONTAINING POLYMERS” (Kodiak Sciences Inc., priority 0001, published 2024).

Key:
[1] = for half life after intravenous administration / half life after subcutaneous administration: species not restated (monkeys in preceding sentence), 'can demonstrate'
[2] = route not stated
[3] = mouse

Substance | half life after intravenous administration ([1]; intravenous) | half life after subcutaneous administration [1] | other results
Avonex: Interferon beta (approximately 20 kDa), an unPEGylated form |  |  | half-life after intramuscular injection ([1]; monkey, intramuscular): 10 h; mean terminal half life in monkeys after intravenous injection ([1]; monkey, intravenous): 5.5 h
Interferon beta 40 kDa branched PEG: Interferon beta conjugated with a 40 kDa branched PEG polymer | thirty | sixty | 
Interferon beta 40 kDa linear PEG: Interferon beta conjugated with a 40 kDa linear PEG polymer | approximately fifteen | thirty | 
Pegasys: recombinant interferon alfa of approximately 19.5 kDa PEGylated with a 40 kDa branched PEG |  |  | human half life [2]: ~80 h; murine elimination half life after subcutaneous injection [3]: approximately 50 hours
